In US20260384433A1, “PYRIDAZINE FUSED ARYL RING COMPOUND AND USE THEREOF” (published 2026):

Columns and labels:
J774A.1 cells = assay: Anti-pyroptosis activity assay in J774A.1 cells (nigericin-induced, CCK-8); settings: read-out: EC50 (anti-pyroptosis activity), nigericin 4 h
human IL-1β = assay: In-vitro THP-1 cell (IL-1β) expression assay; settings: THP-1 cells, LPS 100 ng/mL, nigericin

`O=S(=O)(C1CC1)N1CCC[C@@H](Nc2nnc(-c3ccc(C(F)(F)F)cc3O)n3cccc23)C1` showed an EC50 (J774A.1 cells) of 100 to 1000 nM.

For `CN1CCC[C@@H](Nc2nnc(-c3ccc(C(F)(F)F)cc3O)c3cc4c(n23)CCC4)C1`, the “% inhibition of IL-1β expression” value (human IL-1β; compound 1 nM) was “B (10≤% inhibition<50)”, the “% inhibition of IL-1β expression” value (human IL-1β; compound 10 nM) was “B (10≤% inhibition<50)” and the “% inhibition of IL-1β expression” value (human IL-1β; compound 100 nM) was “A (% inhibition≥50)”. For the same compound, the EC50 (J774A.1 cells) was 100 to 1000 nM.

`CN1CCC[C@@H](Nc2nnc(-c3ccc(C(F)(F)F)cc3O)c3cc4sccc4n23)C1` was tested, and the “% inhibition of IL-1β expression” value (human IL-1β; compound 1 nM) was “B (10≤% inhibition<50)”, the “% inhibition of IL-1β expression” value (human IL-1β; compound 10 nM) was “B (10≤% inhibition<50)” and the “% inhibition of IL-1β expression” value (human IL-1β; compound 100 nM) was “A (% inhibition≥50)”. The EC50 (J774A.1 cells) was < 100 nM.

In the case of `CN1CCC[C@@H](Nc2nnc(-c3ccc(C(F)(F)F)cc3O)c3c4c(cn23)CCC4)C1`, the “% inhibition of IL-1β expression” value (human IL-1β; compound 1 nM) is reported as “B (10≤% inhibition<50)”, the “% inhibition of IL-1β expression” value (human IL-1β; compound 10 nM) is reported as “B (10≤% inhibition<50)” and the “% inhibition of IL-1β expression” value (human IL-1β; compound 100 nM) is reported as “A (% inhibition≥50)”. For the same compound, the EC50 (J774A.1 cells) was 100 to 1000 nM.

In the case of `CN1CCC[C@@H](Nc2nnc(-c3ccc(Cl)cc3O)n3cccc23)C1`, the EC50 (J774A.1 cells) is reported as < 100 nM.

In the case of `C[C@]1(O)C[C@@H](Nc2nnc(-c3ccc(C(F)(F)F)cc3O)n3cccc23)C1`, the EC50 (J774A.1 cells) is reported as 100 to 1000 nM.

`Oc1cc(Cl)ccc1-c1nnc(N[C@@H]2COC[C@H]2O)c2c3c(cn12)CCC3` was tested, and the EC50 (J774A.1 cells) was 100 to 1000 nM.

For `Oc1cc(C(F)(F)F)ccc1-c1nnc(N[C@@H]2CCCC[C@H]2O)c2c3c(cn12)CCC3`, the EC50 (J774A.1 cells) was < 100 nM.

`CN1CCC[C@@H](Nc2nnc(-c3ccc(C(F)(F)F)cc3O)n3c2cc2sccc23)C1` was tested, and the “% inhibition of IL-1β expression” value (human IL-1β; compound 1 nM) was “B (10≤% inhibition<50)”, the “% inhibition of IL-1β expression” value (human IL-1β; compound 10 nM) was “B (10≤% inhibition<50)” and the “% inhibition of IL-1β expression” value (human IL-1β; compound 100 nM) was “A (% inhibition≥50)”. For the same compound, the EC50 (J774A.1 cells) was 100 to 1000 nM.

For `CN1CCC[C@@H](Nc2nnc(-c3ccc(C(F)(F)F)cc3O)n3cccc23)C1`, the “% inhibition of IL-1β expression” value (human IL-1β; compound 1 nM) was “A (% inhibition≥50)”, the “% inhibition of IL-1β expression” value (human IL-1β; compound 10 nM) was “A (% inhibition≥50)” and the EC50 (J774A.1 cells) was < 100 nM.

In the case of `Oc1cc(C(F)(F)F)ccc1-c1nnc(N[C@@H]2COC[C@H]2O)c2c3c(cn12)CCC3`, the EC50 (J774A.1 cells) is reported as 100 to 1000 nM.

`C#Cc1ccc(-c2nnc(NC3CCCN(C)C3)c3cccn23)c(O)c1` (stereo not shown) was tested, and the “% inhibition of IL-1β expression” value (human IL-1β; compound 1 nM) was “A (% inhibition≥50)”, the “% inhibition of IL-1β expression” value (human IL-1β; compound 10 nM) was “A (% inhibition≥50)” and the “% inhibition of IL-1β expression” value (human IL-1β; compound 100 nM) was “A (% inhibition≥50)”. The EC50 (J774A.1 cells) was < 100 nM.

Compound `CS(=N)(=O)N1CCC[C@@H](Nc2nnc(-c3ccc(C(F)(F)F)cc3O)n3cccc23)C1` (stereo partly shown) has an EC50 (J774A.1 cells) of 100 to 1000 nM.

`Oc1cc(C(F)(F)F)ccc1-c1nnc(N[C@@H]2COC[C@@H]2O)c2c3c(cn12)CCC3` showed an EC50 (J774A.1 cells) of 100 to 1000 nM.

With `CN1CCC[C@@H](Nc2nnc(-c3ccc(C(F)(F)F)cc3O)n3cc4c(c23)CCC4)C1` the “% inhibition of IL-1β expression” value (human IL-1β; compound 1 nM) was “B (10≤% inhibition<50)”, the “% inhibition of IL-1β expression” value (human IL-1β; compound 10 nM) was “A (% inhibition≥50)” and the “% inhibition of IL-1β expression” value (human IL-1β; compound 100 nM) was “A (% inhibition≥50)”. For the same compound, the EC50 (J774A.1 cells) was < 100 nM.

`C=Cc1ccc(-c2nnc(N[C@@H]3CCCN(C)C3)c3cccn23)c(O)c1` was tested, and the “% inhibition of IL-1β expression” value (human IL-1β; compound 1 nM) was “A (% inhibition≥50)”, the “% inhibition of IL-1β expression” value (human IL-1β; compound 10 nM) was “A (% inhibition≥50)” and the “% inhibition of IL-1β expression” value (human IL-1β; compound 100 nM) was “A (% inhibition≥50)”.

With `NS(=O)(=O)N1CCC[C@@H](Nc2nnc(-c3ccc(C(F)(F)F)cc3O)n3cccc23)C1` the EC50 (J774A.1 cells) was < 100 nM.

`CS(=O)(=O)N1CCC[C@@H](Nc2nnc(-c3ccc(C(F)(F)F)cc3O)n3cccc23)C1` was tested, and the EC50 (J774A.1 cells) was 100 to 1000 nM.
